ChEMBL document CHEMBL1134582 (J Med Chem, 2001)

Chains of the proteins cited; added tags and fusions are not shown.
UniProt P25099, whole entry: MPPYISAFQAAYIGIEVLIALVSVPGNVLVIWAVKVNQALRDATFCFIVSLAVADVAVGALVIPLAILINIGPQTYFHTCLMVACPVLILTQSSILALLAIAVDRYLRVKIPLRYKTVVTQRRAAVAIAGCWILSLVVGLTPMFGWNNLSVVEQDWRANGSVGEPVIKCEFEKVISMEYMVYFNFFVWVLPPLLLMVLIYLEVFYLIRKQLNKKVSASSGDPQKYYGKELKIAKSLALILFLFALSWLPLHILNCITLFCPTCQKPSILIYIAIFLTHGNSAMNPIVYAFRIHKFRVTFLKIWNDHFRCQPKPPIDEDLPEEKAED

Biological target: Adenosine receptor A1 (Rattus norvegicus, UniProt P25099)
Experiment: Affinity towards adenosine A1 receptor from rat cortical membranes using [3H]DPCPX

OC[C@H]1O[C@@H](n2cnc3c(NCc4cccc(I)c4)nc(Cl)nc32)[C@H](O)[C@@H]1O
Ki: 0.71 µM
